Bioassay records from PubChem.
miR-21 reporter: raises the signal of a miR-21 reporter | HeLa miR-21 FLuc reporter, luciferase, 48 h | Potency, µM (highest dose often 38.3 µM), inactives show at the highest dose reporter change, positive = more light | 340,000 tested, under 10 active | AID 2288; active = well fitted rising curve with a large enough effect; inconclusive = small, poorly fitted or top-dose-only effect; inactive = no such curve, though single readings can be large or run the other way;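 note: % of control where 0% means no effect; miR-21 action dims this reporter so a rising signal means less miR-21 action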
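HeLa miR-21-FLuc reporter line, endogenous miR-21; 2000 cells/well in DMEM/10% FBS; compound titration up to ~40uM final, 48 h, 37 degree Celsius; luciferase detection reagent, 15 min lysis, CCD luminescence.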
TDP1 inh: blocks human tyrosyl-DNA phosphodiesterase 1. Q9NUW8. recombinant TDP1, AlphaScreen DNA substrate cleavage. Potency, µM (highest dose often 130 µM), for inactives: at the highest dose activity change, negative = inhibition, most hits filed as inhibitors. 350,000 compounds, 0.28% hits. AID 485290; also: potency is read from the fitted curve at half-maximal effect; % is scaled to controls: 0 for no effect and ±100 for the full control effect; nearly all actives have a fitted effect of over 40% in size
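Enzyme-compound mixtures sat 15 min at room temperature, followed by a 5 min reaction with 15 nM final substrate and 10 min with AlphaScreen beads. Recombinant human Tdp1 was used at 1 nM final.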
TDP1 cell noCPT: qHTS for Inhibitors of human tyrosyl-DNA phosphodiesterase 1 (TDP1): qHTS in cells in absence of CPT. AID 686978, 2013. Potency, µM (titrated, usually from 46.2 µM), without a hit: top-dose activity change, negative = growth inhibition, hits mostly inhibitors. 420,000 compounds, 15% hits. DT40 Tdp1-/- hTDP1 cells, no CPT, ATP luminescence, 48 h; also: potency is read from the fitted curve at half-maximal effect; % is scaled to controls: 0 for no effect and ±100 for the full control effect; nearly all actives have a fitted effect of over 55% in size
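Luminescent ATP content (CellTiter-Glo) served as the growth readout. Knockout chicken DT40 cells expressing human TDP1 were exposed to compounds without camptothecin for a minimum 48 hr at 37 °C.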
DT40 TDP1 CPT: growth inhibition of DT40 Tdp1-/-;hTDP1 cells with camptothecin (screen for TDP1 inhibitors). chicken DT40 Tdp1-/-;hTDP1 cells + 20 nM CPT, ATP luminescence, 48 h. 420,000 compounds, 12% hits. Potency, µM (series often up to 46.2 µM), for inactives: at the highest dose activity change, negative = growth inhibition, usual class: inhibitors; also: potency is read from the fitted curve at half-maximal effect; % is scaled to controls: 0 for no effect and ±100 for the full control effect; nearly all actives have a fitted effect of over 55% in size
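Chicken DT40 Tdp1-/- cells complemented with human TDP1, 400 cells/well, exposed to compounds plus 20 nM camptothecin for at least 48 h at 37 C; viability read as ATP content by CellTiter-Glo luminescence.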
uPA generation: blocks generation of uPA at the cell surface; cell surface uPA generation assay, qHTS; Potency, µM (top dose mostly 38.3 µM), for inactives: at the highest dose activity change, negative = inhibition, usual class: inhibitors; 330,000 compounds, 0.31% hits; AID 540303; active = well fitted inhibition curve with a large enough effect; inconclusive = small, poorly fitted or top-dose-only effect; inactive = no such curve, though single readings can be large or run the other way; tested in mouse RAW 264.7 cells; also: potency is read from the fitted curve at half-maximal effect; % is scaled to controls: 0 for no effect and ±100 for the full control effect; nearly all actives have a fitted effect of over 55% in size
Starred values were filed as active, the others as inactive; u = inconclusive; x = no result; [ ] = dose if it differs, or a comment. Sampled rows, rich in hits. Any-hit rate of the full collection: about 16%. Unless noted, calls follow the shape of the dose curve; as a rule, active = well fitted curve in the direction sought with a large enough effect; inconclusive = small, poorly fitted or top-dose-only effect, or another doubt; inactive = no such curve, though single readings can be large; an effect the other way counts as inactive or inconclusive.

A first look:
canonical_smiles	miR-21 reporter	TDP1 inh	TDP1 cell noCPT	DT40 TDP1 CPT	uPA generation
COCCNC(=O)C1(C)CCN(Cc2ccc3ccccc3c2Br)C1 (configuration not stated)	x	x	10µM*	29µM*	x
CCNC(=O)C1(C)CCCN(Cc2ccc3ccccc3c2Br)C1 (configuration not stated)	x	x	18µM*	u	x
CC1CCC2(CC1)NC(=O)N(Cc1cccc(C(F)(F)F)c1)C2=O (configuration not stated)	2%	0%	u	18µM*	-3%

Results (from the top)
canonical_smiles	miR-21 reporter	TDP1 inh	TDP1 cell noCPT	DT40 TDP1 CPT	uPA generation
COCCNC(=O)C1(C)CCN(Cc2ccc3ccccc3c2Br)C1 (configuration not stated)	x	x	10µM*	29µM*	x
CCNC(=O)C1(C)CCCN(Cc2ccc3ccccc3c2Br)C1 (configuration not stated)	x	x	18µM*	u	x
CC1CCC2(CC1)NC(=O)N(Cc1cccc(C(F)(F)F)c1)C2=O (configuration not stated)	2%	0%	u	18µM*	-3%
Cc1cccc(N2CCN(C(=O)CN3C(=O)NC4(CCCCCC4)C3=O)CC2)c1C	x	2%	21µM*	u	-3%
O=C(CN1C(=O)NC2(CCCC2)C1=O)N1CCN(c2cccc(C(F)(F)F)c2)CC1	x	1%	21µM*	u	0%
O=C(CN1C(=O)NC2(CCCCCC2)C1=O)N1CCC(Cc2ccccc2)CC1	3%	-6%[56.1 µM]	16µM*	u	-3%
COc1cccc(N2CCN(C(=O)CN3C(=O)NC4(CCCC4)C3=O)CC2)c1	-3%	6%	-20%	-11%	25%
COc1ccc(C(=O)OCC(=O)NC(=O)NC(C)C)cc1OC	-3%	-3%	-5%	-30%	15%
N#C/C(=C(/O)CSc1ncn[nH]1)c1nc2ccccc2[nH]1	7%	10%	-12%	-17%	15%
O=C(c1cccc([N+](=O)[O-])c1)N1CCN(CCc2ccncc2)CC1	0%	-1%	-3%	-11%	x
COc1ccc(S(=O)(=O)NCC2CCCO2)cc1C(=O)O (configuration not stated)	-1%	x	1%	37%	5%
O=C(CN1C(=O)NC2(CCCC2)C1=O)N1CCN(c2ccc(C(F)(F)F)cc2[N+](=O)[O-])CC1	x	x	8.2µM*	13µM*	7%
Cc1ccc(C(=O)Cc2ccccc2)cc1	x	x	15%	9%	-13%
CC1=C(CC(=O)c2ccc(Cl)cc2)C(=O)c2ccccc2C1=O	-28%	-6%	16µM*	23µM*	x
Cc1cccc[n+]1CC(=O)c1ccc([N+](=O)[O-])cc1	x	x	16µM*	21µM*	2%
COc1ccc(C(=O)C[n+]2ccccc2C)cc1	-5%	3%	21µM*	16µM*	2%
Cc1cccc[n+]1CC(=O)c1ccc(NC(=O)c2ccccc2)cc1	0%	x	u	u	9%
CCc1nn(CC(=O)N2CCN(c3ccc(OC)cc3)CC2)c(=O)c2cc3sccc3n12	2%	2%	1%	-27%	x
Cc1c(C(=O)N/N=C/c2ccc(N(C)C)cc2)[nH]c2ccc(Cl)cc12	21%	8%	5.8µM*	5.8µM*	-13%
Cc1c(C(=O)N/N=C/c2ccccc2)[nH]c2ccc(Cl)cc12	2%	5%	6.5µM*	9.2µM*	2.8µM*
O=C(NCCCN1CCN(c2ccccc2F)CC1)c1ccc2nc(Cc3ccccc3)oc2c1	28%	7%	26µM*	u	x
O=C(NCCCN1CCN(c2ccccc2F)CC1)Nc1ccc(F)cc1	-6%	4%	u	u	3%
O=C(NCCCN1CCN(c2ccc(F)cc2)CC1)c1ccc2nc(CCc3ccccc3)oc2c1	26%	3%	u	u	x
CSc1ccc(NC(=O)NCCCN2CCN(c3ccccc3F)CC2)cc1	-1%	8%	21µM*	21µM*	-5%
Cc1c(C)n(C)c2ccc(C(=O)NCCCN3CCN(c4ccccc4F)CC3)cc12	4%	16%	u	9.2µM*	-15%
O=C(NCCCN1CCN(c2ccccc2F)CC1)c1ccc2nc(CCc3ccccc3)oc2c1	12%	3%	15µM*	21µM*	x
CC1Cc2ccccc2N1S(=O)(=O)c1ccc2c(c1)n(C)c(=O)c(=O)n2C (configuration not stated)	-1%	6%	-17%	u	x
CC(=O)NC12CC3CC(C1)CC(C(=O)N(C)Cc1cccc(Cl)c1Cl)(C3)C2	1%	8%	-3%	u	5%
Cc1ccc(CNS(=O)(=O)N(C)C)cc1	-3%	2%	-10%	-6%	0%
